Reference: publication PMC6522927, “Fibrate-based N-acylsulphonamides targeting carbonic anhydrases: synthesis, biochemical evaluation, and docking studies” (Journal of Enzyme Inhibition and Medicinal Chemistry, 2019)

By UniProt entry, the sequences of proteins in these tests, tags left out. Residues count along the entry.
UniProt P00915, whole entry: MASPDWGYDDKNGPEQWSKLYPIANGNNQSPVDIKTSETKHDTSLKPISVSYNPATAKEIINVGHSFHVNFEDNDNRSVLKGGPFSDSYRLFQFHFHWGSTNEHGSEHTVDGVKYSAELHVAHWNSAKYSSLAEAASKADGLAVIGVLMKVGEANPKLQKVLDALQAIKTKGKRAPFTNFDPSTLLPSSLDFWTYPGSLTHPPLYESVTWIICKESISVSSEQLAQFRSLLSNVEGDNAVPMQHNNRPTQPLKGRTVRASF
UniProt O43570, 25-354 limits assumed: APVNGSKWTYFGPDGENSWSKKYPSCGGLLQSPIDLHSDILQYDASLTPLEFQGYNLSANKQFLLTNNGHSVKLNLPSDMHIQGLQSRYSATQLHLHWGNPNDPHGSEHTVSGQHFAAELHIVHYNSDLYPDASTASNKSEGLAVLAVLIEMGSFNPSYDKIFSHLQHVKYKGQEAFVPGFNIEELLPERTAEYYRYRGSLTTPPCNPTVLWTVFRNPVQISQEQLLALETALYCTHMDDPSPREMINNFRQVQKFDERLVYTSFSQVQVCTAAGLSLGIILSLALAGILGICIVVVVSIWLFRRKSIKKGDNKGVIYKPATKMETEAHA

Key:
hCA II = hCA II (Homo sapiens, UniProt P00918); experiment: stopped-flow CO2 hydrase assay, hCA II; details: result stated in words
hCA IX = hCA IX (Homo sapiens, UniProt Q16790); experiment: stopped-flow CO2 hydrase assay, hCA IX; details: result stated in words
hCA I = hCA I (Homo sapiens, UniProt P00915); experiment: stopped-flow CO2 hydrase assay, hCA I; details: for inhibition of hCA I (in words): result stated in words
hCA XII = hCA XII (Homo sapiens, UniProt O43570); experiment: stopped-flow CO2 hydrase assay, hCA XII; details: read-out: Ki hCA XII; recombinant hCA XII, CO2 hydration, 15 min preincubation

## CC(C)C(Sc1nc2cc(Cl)ccc2s1)C(=O)NS(=O)(=O)c1ccccc1 (centres unmarked)
hCA II
  inhibition of hCA II (in words): moderately inhibited
hCA IX
  inhibition of hCA IX (in words): moderately inhibited
hCA I; read-out: Ki hCA I, recombinant hCA I, CO2 hydration, 15 min preincubation
  Ki: < 10 µM
hCA I
  inhibition of hCA I (in words): moderately inhibited

## CCCC(Sc1nc2ccc(OCC)cc2s1)C(=O)NS(C)(=O)=O (centres unmarked)
hCA XII
  Ki: 61 µM
hCA II
  inhibition of hCA II (in words): no activity
hCA IX
  inhibition of hCA IX (in words): no activity
hCA I
  inhibition of hCA I (in words): no activity
